Entries after “also recorded” stand apart in the source; their conditions may differ. Where two headings read alike, the source gives them in different places.
Columns and labels:
kappa-opioid receptors = kappa-opioid receptors (Homo sapiens, UniProt P41145); conditions: cited from earlier work
[1] = in vivo; cited from earlier work
Human endothelial cells = experiment: Angiogenesis in human endothelial cells / in vitro adipose tissue angiogenesis assay (planned); format: cell-based; conditions: expected result of planned study
Text: Human endothelial cells. Human endothelial cells derived from umbilical veins or other sources will be used to study the effect of enterostatin on angiogenesis. The ability to bind angiostatin will be correlated with the level of beta subunit F1 ATPsynthase in the plasma membranes, and the co-localization of angiostatin and enterostatin binding shown by confocal immunofluorescent microscopy. Further, the effect of transfection of BATPS-GFP construct on these functions will be studied. The effects of enterostatin on vessel proliferation in an in vitro assay of adipose tissue angiogenesis will also be studied.

The chains behind the UniProt entries cited, without tags or fusion partners. Where a name states a change or a piece, a line headed by the entry shows the natural chain unless it says otherwise. Residues count along the entry.
UniProt P41145: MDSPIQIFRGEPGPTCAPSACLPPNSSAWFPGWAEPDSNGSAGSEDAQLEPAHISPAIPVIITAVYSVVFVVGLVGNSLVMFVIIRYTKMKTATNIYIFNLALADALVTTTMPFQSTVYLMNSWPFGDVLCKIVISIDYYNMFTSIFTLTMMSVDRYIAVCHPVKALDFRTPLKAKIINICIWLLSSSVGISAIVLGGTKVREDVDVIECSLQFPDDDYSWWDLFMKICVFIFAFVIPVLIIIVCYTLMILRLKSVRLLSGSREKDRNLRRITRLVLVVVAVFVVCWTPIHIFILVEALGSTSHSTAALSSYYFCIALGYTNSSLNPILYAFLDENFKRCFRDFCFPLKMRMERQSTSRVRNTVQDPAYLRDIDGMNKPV
UniProt P32238, whole entry: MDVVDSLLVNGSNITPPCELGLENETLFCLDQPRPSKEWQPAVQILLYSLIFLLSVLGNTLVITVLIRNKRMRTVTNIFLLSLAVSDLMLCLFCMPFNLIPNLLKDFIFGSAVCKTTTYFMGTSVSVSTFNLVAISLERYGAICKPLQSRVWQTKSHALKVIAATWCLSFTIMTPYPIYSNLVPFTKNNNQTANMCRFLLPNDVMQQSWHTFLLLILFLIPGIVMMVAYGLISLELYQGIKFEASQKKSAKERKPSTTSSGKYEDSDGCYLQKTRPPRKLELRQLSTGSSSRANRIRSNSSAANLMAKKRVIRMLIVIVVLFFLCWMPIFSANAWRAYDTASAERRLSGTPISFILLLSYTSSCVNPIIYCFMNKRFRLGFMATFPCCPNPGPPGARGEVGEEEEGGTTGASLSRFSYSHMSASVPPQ
UniProt P25929, whole entry: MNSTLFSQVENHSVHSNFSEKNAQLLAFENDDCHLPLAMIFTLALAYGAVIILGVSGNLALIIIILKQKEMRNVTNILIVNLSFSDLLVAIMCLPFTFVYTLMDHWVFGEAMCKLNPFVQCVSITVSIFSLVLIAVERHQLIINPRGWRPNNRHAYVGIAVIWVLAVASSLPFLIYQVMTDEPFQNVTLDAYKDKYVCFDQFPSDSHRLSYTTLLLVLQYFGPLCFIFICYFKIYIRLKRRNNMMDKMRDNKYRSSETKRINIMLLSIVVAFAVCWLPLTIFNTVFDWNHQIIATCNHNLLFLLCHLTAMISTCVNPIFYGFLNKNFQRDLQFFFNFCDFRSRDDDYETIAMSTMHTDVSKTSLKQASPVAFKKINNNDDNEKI
UniProt P10719, 110-529: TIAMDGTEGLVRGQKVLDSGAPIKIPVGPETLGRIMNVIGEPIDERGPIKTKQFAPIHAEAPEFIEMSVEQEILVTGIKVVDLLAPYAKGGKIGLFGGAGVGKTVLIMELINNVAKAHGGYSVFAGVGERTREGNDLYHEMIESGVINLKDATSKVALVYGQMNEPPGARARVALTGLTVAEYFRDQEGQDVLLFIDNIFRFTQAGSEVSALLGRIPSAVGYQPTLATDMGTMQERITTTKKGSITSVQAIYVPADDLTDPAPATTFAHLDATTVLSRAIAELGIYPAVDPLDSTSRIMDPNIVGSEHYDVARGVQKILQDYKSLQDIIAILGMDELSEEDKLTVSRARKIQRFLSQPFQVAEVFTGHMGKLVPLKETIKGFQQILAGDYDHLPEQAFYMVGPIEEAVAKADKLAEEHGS
UniProt P10719, 47-529: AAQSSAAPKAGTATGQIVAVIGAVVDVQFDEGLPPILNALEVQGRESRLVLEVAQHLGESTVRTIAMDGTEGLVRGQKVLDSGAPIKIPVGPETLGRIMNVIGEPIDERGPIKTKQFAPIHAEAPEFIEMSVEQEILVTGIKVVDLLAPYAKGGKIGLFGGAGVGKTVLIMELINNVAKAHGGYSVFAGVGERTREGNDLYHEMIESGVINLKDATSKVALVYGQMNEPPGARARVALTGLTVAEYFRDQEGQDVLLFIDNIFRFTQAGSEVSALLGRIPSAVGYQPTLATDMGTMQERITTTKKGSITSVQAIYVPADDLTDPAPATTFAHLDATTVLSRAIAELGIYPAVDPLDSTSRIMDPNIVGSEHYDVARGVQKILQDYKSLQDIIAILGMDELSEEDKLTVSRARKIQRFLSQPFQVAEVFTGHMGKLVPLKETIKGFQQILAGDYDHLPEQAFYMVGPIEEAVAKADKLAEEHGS

[2] = target: cholecystokinin A receptors (Homo sapiens, UniProt P32238); conditions: cited from earlier work
galanin receptors = conditions: cited from earlier work
[3] = target: Neuropeptide Y1 receptors (Homo sapiens, UniProt P25929); conditions: cited from earlier work
[4] = test system: breast cancer or prostate cancer tumor cell lines; experiment: Cancer cell apoptosis and survival under hypoxic challenge (planned); format: cell-based; conditions: expected result of planned study
Text: Cancer cells. The effects of enterostatin on the response of cancer cells to hypoxic challenge will be studied. […] These transfected cells could also be used to search for small molecule agonists/antagonists or mimetics of enterostatin.

[5] = intracerebroventricular vs intraperitoneal or intragastric administration; cited from earlier work
[6] = target: T1, F1-ATPase beta subunit-GFP (Rattus norvegicus, UniProt P10719); experiment: Cellular location of F1-ATPase beta subunit-GFP in transfected HepG2 cells (deconvolution/confocal microscopy); format: cell-based, human; conditions: 0.5 and 2 uM enterostatin, 15, 30 or 60 min
T1 construct: The F1-ATPase β-subunit clone (1,254 bp) was generated by PCR; expressed in transfected cells; host or cells: HepG2 (human liver cells), transient transfection
Text: Generation of F1-ATPase beta subunit-GFP fusion protein. The F1-ATPase β-subunit clone (1,254 bp) was generated by PCR from an amygdala cDNA library using F1-ATPase β-subunit forward primer (5′[…]3′ (SEQ ID NO. 1), Sac I recognition site underlined) and F1-ATPase β-subunit reverse primer (5′[…]3′ (SEQ ID NO. 2), Hind III recognition site underlined), according to procedures described in Appendix B. The PCR product was cloned into the pEGFP-C1 vector (Clonetech, Palo Alto, Calif.) between the Sac I and Hind III sites as shown in FIG. 1A. The construct was then transformed into DH5α cells. Transformants were screened and positive clones containing plasmid with the correct orientation of the insert were cultured.
(§1) Cell Culture and Transfection. Human liver cells (HepG2 cell line, Pennington Biomedical Research Center, Baton Rouge, La.) were grown and maintained in Dulbecco's modified eagle's medium (Gibco, Carlsbad, Calif.) containing 10% fetal bovine serum, penicillin (1,000 u/ml), and streptomycin (1,000 u/ml). For transient transfection experiments, the HepG2 cell line was seeded into 24-well plates (Corning, VWR, West Chester, Pa.) at 50-70% confluency. For each well of HepG2 cells, 0.8 μg of either the pATPase beta-GFP or pATPase alpha-RFP and 2.4 μl of Fugene6 (Roche, Indianapolis, Ind.) were incubated with 100 μl of Optimem (Gibco) for 30 min at room temperature. […]

islet cells = conditions: cited from earlier work
sheep = conditions: single-choice diet; cited from earlier work
rat F1-ATPase β-subunit = target: T2, rat F1-ATPase β-subunit (Rattus norvegicus, UniProt P10719); experiment: 125I-β-casomorphin binding to recombinant F1-ATPase β-subunit, with and without cold enterostatin or analogs
T2 construct: made in house
Text: We have investigated that the binding activity of the purified protein with a labeled antagonist, β-casomorphin (18, 52), in the absence and presence of cold enterostatin. (See Appendix B) ^125I-β-casomorphin weekly binds to rat F1-ATPase β-subunit. Binding was promoted by low concentrations of cold enterostatin but displaced by higher concentrations. The relationship between binding activity and feeding behavior was studied by examining the ability of a number of enterostatin analogs to affect β-casomorphin binding to the F1-ATPase β-subunit.
It has been discovered that the ability of analogues to affect binding of a labeled β-casomorphin (an enterostatin antagonist (44, 52)) to recombinant rat F1-ATPase β-subunit was closely correlated with their enterostatin-like biological activity. […] To investigate the partitioning of the F1-ATPase β-subunit into plasma membranes, HepG2 cells were transfected with either F1-ATPase β-subunit-green fluorescent protein (GFP) or F1-ATPase α-subunit-red fluorescent protein (RFP) constructs. The effects of enterostatin on the intracellular localization of the proteins were studied using deconvolution or confocal microscopy. […]

[7] = read-out: Kd, low affinity binding to brain membrane preparation; cited from earlier work
baboons = conditions: single-choice diet; cited from earlier work
[8] = test system: SK-N-MC neuroepithelioma cells; conditions: read-out: Kd, binding to SK-N-MC neuroepithelioma cells; cited from earlier work
[9] = test system: plasma membranes from HepG2 cells; experiment: 125I-labelled free Apo A1 binding to HepG2 plasma membranes (planned); parameters: species or system human; conditions: planned study
Text: HepG2 cells or primary hepatocytes cultures. […] The amount of the F1-ATPase β-subunit in the plasma membranes will be measured using the BATPS-GFP construct as described above.

rats = conditions: cited from earlier work; for duration of action on feeding: single injection
rabbits = conditions: single-choice diet; cited from earlier work
[10] = test system: F1-ATPase alpha subunit-RFP; experiment: Cellular location of F1-ATPase alpha subunit-RFP in transfected HepG2 cells (deconvolution/confocal microscopy); format: cell-based, human; conditions: 0.5 or 2 μM enterostatin, 15, 30 or 60 min
Text: Generation of F1-ATPase alpha subunit-RFP fusion protein. The F1-ATPase α-subunit clone (1,662 bp) was generated by PCR from an amygdala cDNA library using F1-ATPase α-subunit forward primer (5′[…]3′ (SEQ ID NO. 3), Sac I recognition site underlined) and F1-ATPase α-subunit reverse primer (5′ […]3′ (SEQ ID NO. 4), Hind III recognition site underlined). The construct was then transformed into DH5α cells. Transformants were screened, and positive clones containing plasmid with the correct orientation of the insert were cultured.
as §1, with “temperature. The cells were transfected using this mixture in 1 ml total volume for 16-18 h and visualized by microscopy 18-24 h after the transfection.” for “temperature.”

[11] = mainly into lymphatic system; cited from earlier work
humans = conditions: intravenous injection; cited from earlier work
[12] = rats, three-choice macronutrient diet

CC(C)[C@H](N)C(=O)N1CCC[C@H]1C(=O)N[C@@H](CC(=O)O)C(=O)N1CCC[C@H]1C(=O)N[C@@H](CCCNC(=N)N)C(=O)O [enterostatin, Val-Pro-Asp-Pro-Arg]
binding to kappa-opioid receptors (kappa-opioid receptors): not to bind | corticosterone secretion [1]: enhanced corticosterone secretion | angiogenesis (Human endothelial cells): will inhibit angiogenesis | binding to cholecystokinin A receptors [2]: not to bind | binding to galanin receptors (galanin receptors): not to bind | binding to Neuropeptide Y1 receptors [3]: not to bind | apoptosis and death of cancer cells [4]: increase apoptosis and death of cancer cells | gastric emptying [5]: inhibition of gastric emptying was observed only after intracerebroventricular administration | location of F1-ATPase beta subunit-GFP [6]: induced a movement of the protein to the perimeter of cells; also recorded: clearly relocated toward the cell periphery | location of F1-ATPase beta subunit-GFP ([6]; listed as Enterostatin): induced movement of the F1-ATPase β-subunit-GFP to the periphery of cells | insulin secretion from islets (islet cells; 16.7 mM glucose, enterostatin 10^−9 to 10^−5 M, dose-dependent): inhibited insulin secretion | intracellular cyclic AMP content (islet cells; increase produced by U50,488 (100 nM)): reduced the increase in intracellular cyclic AMP content | stimulated insulin secretion (islet cells; stimulated by glybenclamide (5.0 and 10 μM), TPA (50 and 100 nM), U50,488 (100 nM)): also inhibited insulin secretion | food intake (sheep): reduce food intake | effect of cold enterostatin on 125I-β-casomorphin binding (rat F1-ATPase β-subunit; higher concentrations of cold enterostatin): displaced | effect of cold enterostatin on 125I-β-casomorphin binding (rat F1-ATPase β-subunit; low concentrations of cold enterostatin): promoted | Kd [7]: 230 nM | food intake (baboons): reduce food intake | Kd [8]: 40 nM | binding of 125I-labelled free Apo A1 to plasma membranes [9]: increases the binding | daily intake of dietary fat (rats; chronic icv administration from mini-osmotic pumps, single-choice HF or two-choice HF/LF diet): attenuated the daily intake of dietary fat | fat deposition and body weight gain (rats; chronic icv administration, HF or HF/LF diet): reduction in fat deposition and body weight gain | dose-response curve on food intake (rats; inhibition at lower doses, stimulation at higher doses): biphasic | energy intake or change in body weight gain (rats; rats chronically treated, low-fat diet for seven days): no significant reduction | carbohydrate or protein intake (rats; [12]): no effect | intake of the fat macronutrient (rats; [12]): reduced intake of the fat macronutrient | diet intake, two-choice high-fat (HF) and low-fat (LF) paradigm (rats; rats, two-choice HF/LF diet): reduced only intake of the HF diet | duration of action on feeding (rats; rats adapted to a six-hour feeding schedule): lasting up to six hours | duration of action on feeding (rats; rats adapted to ad-libitum feeding): up to 24 hours | food intake (rabbits): reduce food intake | distribution of expressed F1-ATPase alpha subunit-RFP [10]: did not alter the location; also recorded: did not change the distribution | absorption across the intestine [11]: limited and slow | food intake (humans): has not been found to reduce food intake | subjective feeling of hunger (humans): reduce the subjective feeling of hunger

Source: patent publication US7879572B2, “Regulation of F1-ATPase beta subunit cellular location” (Board of Supervisors of Louisiana State University And …, priority 2004, dated 2011)
